Measurements as given in ChEMBL document CHEMBL1156179 (J Med Chem, 2010).

Sequences of proteins named here, by UniProt entry; tags and fusion partners are left off.
UniProt P30542, whole entry: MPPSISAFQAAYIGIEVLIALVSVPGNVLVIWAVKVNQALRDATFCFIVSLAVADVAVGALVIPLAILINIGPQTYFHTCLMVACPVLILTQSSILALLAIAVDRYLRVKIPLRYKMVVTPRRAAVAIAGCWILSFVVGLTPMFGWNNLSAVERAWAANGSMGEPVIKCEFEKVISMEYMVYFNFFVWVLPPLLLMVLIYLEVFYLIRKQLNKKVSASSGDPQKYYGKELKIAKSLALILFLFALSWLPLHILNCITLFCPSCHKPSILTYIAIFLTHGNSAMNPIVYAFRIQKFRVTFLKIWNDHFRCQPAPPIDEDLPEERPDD

Legend:
Adenosine receptor A1 = Adenosine receptor A1 (Homo sapiens, UniProt P30542); assay: Displacement of [3H]CCPA from human cloned adenosine A1 receptor expressed in CHO cells; format: cell-based
Procedure, shortened: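 CHO membranes with hA1 receptor, from 1000g 4 min spin then 100000g 30 min. Incubated 3 h at 25 °C with 1 nM [3H]CCPA, 0.2 U/mL adenosine deaminase, 20 μg protein in 50 mM Tris/HCl pH 7.4 and graded compound. Nonspecific binding with 1 mM theophylline.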

Adenosine receptor A2a = Adenosine receptor A2a (Homo sapiens, UniProt P29274); assay: Displacement of [3H]NECA from human cloned adenosine A2a receptor expressed in CHO cells; format: cell-based
Procedure, shortened: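 hA2A-CHO membranes, prepared by two-step centrifugation, were incubated with 30 nM [3H]NECA, 50 μg protein and graded compound under the A1 binding conditions. Nonspecific binding with 100 μM R-PIA.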

Ki (Adenosine receptor A1): > 100 µM
Ki (Adenosine receptor A2a): 5.97 µM
Structure (SMILES): Nc1nc2c(cnn2CCc2ccccc2)c2nc(-c3ccc(Cl)cc3)nn12
